Consider one substance from patent US20060110492A1, “Preparation and food product comprising an active phytase” (priority 2003, published 2006).

The data set can be described thus: Fe retained in sedimented fraction of suspended salt (AES/ICP). Conditions: pellet of the pH 2 suspension dissolved in 15 g concentrated chloric acid. On the procedure: The prepared FePA as described in Example 3 was suspended either at pH 2 or at pH 5,5 in a concentration of 35.8 g per liter. After sedimentation, the supernatant fraction of both suspensions was analysed by AES/ICP.
Subsequently, the suspension of pH=2 was centrifuged 10 minutes at 6000 rpm at room temperature. The pellet was dissolved in 15 g concentrated […] and the solution was analyzed by AES/ICP.
This procedure was repeated with iron phosphate. This salt was prepared in the same way as the preparation of the essential cation phytates: the cation was dissolved as its sulfate, and subsequently precipitated with a basic solution of sodium phosphate. The precipitate was collected and washed.

Consider Iron-phytate [Fe-phytate], for which the “Fe retrieved in the soluble fraction” value is given as “essentially all”.
